According to patent publication US3953497A, “2,4,6-Triiodo-5-methoxyacetamido-N-methylisophthalamic acid and salts, acyl halides and esters thereof” (Mallinckrodt, Inc., priority 1974, dated 1976):

Assays:
in vivo [1] = settings: mouse, intracerebral, fixed volumes of various concentrations, seven day observation, meglumine salt, read-out: LD50 of Meglumine Salt, Intracerebral (Mice)
Description: (§1) The techniques utilized are outlined below.
II. Intracerebral Toxicity in Mice
Swiss Albino mice (Charles River) were used. […] The animals were observed immediately after injections and daily throughout a seven day observation period.

in vivo [2] = settings: rat, intracisternal, two day observation, meglumine salt, read-out: LD50 of Meglumine Salt, Intracisternal (Rats)
Description: as §1
III. Intracisternal Toxicity in Rats
Sprague Dawley (Carworth) rats were used. […] After dosing, the animals were housed individually, and observed for immediate reactions and periodically for a two day observation period.

CNC(=O)c1c(I)c(NC(C)=O)c(I)c(C(=O)O)c1I [Iothalamic Acid, 5-acetamido-2,4,6-triiodo-N-methylisophthalamic acid]
LD50 at 168 h (in vivo [1]): 280 mg/kg | LD50 at 48 h (in vivo [2]): 86 mg/kg
